ChEMBL document CHEMBL4725222, “Advances in the Development of Phosphodiesterase-4 Inhibitors” (J Med Chem, 2020)

Protein sequences, listed by entry. Tags and fused reporters are not part of them. Lines headed by an entry give the natural chain unless they say otherwise; changes in a name come on top.
UniProt P27815: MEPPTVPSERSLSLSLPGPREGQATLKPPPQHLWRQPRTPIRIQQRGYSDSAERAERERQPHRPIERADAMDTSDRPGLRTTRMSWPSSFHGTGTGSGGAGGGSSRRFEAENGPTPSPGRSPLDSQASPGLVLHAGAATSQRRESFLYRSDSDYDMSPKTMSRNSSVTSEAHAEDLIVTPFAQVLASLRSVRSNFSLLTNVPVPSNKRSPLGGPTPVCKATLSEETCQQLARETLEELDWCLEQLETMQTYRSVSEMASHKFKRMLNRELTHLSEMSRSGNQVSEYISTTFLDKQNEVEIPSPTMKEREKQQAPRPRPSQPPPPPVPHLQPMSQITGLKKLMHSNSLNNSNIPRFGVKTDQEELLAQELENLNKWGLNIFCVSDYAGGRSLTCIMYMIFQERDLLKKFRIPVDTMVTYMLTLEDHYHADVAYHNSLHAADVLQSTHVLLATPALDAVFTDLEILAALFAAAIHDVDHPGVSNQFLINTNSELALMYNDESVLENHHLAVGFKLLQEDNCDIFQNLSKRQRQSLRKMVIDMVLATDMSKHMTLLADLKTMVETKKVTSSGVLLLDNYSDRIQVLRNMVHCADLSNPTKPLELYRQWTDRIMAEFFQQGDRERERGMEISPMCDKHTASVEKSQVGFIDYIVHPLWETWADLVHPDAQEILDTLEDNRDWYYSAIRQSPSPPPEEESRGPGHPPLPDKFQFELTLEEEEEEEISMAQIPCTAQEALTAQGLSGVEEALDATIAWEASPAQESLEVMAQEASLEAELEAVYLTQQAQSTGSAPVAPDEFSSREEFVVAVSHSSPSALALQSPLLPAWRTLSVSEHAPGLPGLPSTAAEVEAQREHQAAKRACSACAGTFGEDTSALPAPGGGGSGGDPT
UniProt Q08499: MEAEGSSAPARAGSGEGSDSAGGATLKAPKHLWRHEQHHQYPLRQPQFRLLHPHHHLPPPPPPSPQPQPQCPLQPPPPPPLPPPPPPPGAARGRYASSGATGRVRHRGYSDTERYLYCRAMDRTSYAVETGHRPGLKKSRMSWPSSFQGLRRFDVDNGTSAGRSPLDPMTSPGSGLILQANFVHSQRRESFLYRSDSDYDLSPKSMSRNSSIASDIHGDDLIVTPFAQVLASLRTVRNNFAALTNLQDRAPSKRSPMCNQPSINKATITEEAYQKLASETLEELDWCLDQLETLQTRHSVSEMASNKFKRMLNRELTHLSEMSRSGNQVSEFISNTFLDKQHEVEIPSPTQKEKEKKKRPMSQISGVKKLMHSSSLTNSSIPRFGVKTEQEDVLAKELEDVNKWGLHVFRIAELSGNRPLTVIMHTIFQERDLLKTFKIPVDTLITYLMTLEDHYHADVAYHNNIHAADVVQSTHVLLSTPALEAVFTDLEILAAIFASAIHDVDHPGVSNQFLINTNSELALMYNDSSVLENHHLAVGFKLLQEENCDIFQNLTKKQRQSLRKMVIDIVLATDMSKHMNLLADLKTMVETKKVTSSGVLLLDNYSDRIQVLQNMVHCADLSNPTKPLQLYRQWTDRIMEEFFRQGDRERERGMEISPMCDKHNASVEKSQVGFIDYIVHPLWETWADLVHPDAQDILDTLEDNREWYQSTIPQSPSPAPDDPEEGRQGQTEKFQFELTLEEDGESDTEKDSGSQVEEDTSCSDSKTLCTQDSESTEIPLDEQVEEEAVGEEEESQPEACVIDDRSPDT
UniProt Q07343: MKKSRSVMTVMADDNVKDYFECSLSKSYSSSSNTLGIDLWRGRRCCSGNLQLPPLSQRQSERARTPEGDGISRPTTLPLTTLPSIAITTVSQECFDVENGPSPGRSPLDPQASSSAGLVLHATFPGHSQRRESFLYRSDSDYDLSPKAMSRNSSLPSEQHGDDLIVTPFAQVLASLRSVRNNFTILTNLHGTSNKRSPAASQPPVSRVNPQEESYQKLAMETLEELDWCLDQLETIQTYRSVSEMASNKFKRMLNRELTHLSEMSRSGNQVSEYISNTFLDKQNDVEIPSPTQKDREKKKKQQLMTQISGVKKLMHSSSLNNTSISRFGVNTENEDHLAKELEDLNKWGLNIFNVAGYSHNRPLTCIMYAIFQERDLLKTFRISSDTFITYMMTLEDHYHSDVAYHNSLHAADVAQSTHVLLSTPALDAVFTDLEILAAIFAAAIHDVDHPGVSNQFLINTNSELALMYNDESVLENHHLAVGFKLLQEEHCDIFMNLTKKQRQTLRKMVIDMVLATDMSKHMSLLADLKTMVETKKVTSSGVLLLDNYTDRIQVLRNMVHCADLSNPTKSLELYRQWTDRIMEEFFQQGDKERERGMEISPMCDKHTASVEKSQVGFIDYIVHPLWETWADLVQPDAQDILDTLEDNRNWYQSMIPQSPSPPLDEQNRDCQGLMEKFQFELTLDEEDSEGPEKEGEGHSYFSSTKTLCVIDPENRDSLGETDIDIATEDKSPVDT
UniProt Q08493: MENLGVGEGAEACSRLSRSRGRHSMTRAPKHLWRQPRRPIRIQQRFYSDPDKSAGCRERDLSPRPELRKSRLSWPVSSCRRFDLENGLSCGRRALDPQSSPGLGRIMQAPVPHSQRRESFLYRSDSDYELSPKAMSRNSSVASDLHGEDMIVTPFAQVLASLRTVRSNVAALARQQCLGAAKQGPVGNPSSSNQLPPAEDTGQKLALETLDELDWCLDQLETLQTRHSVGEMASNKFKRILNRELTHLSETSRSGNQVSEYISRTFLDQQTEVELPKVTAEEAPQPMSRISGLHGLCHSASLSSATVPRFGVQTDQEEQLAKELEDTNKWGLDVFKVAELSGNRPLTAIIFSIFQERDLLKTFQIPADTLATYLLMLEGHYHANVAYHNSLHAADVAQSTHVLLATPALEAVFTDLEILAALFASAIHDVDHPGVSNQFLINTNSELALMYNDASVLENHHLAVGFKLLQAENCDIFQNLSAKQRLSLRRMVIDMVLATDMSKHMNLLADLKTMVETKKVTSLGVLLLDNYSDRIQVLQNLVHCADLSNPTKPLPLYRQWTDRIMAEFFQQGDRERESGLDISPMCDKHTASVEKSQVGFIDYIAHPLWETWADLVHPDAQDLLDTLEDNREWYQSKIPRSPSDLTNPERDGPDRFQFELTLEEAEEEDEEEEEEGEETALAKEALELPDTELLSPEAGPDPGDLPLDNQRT

Molecular target: Phosphodiesterase 4 (Homo sapiens, UniProt P27815+Q08499+Q07343+Q08493)
Assay: Inhibition of PDE4 (unknown origin) expressed in Saccharomyces cerevisiae using [3H] cAMP as substrate incubated for 1 hr by scintillation proximity assay

With `CCn1nc(-c2cccc(-c3cccc(C(=O)NCCCCCCCN(C)CCO)c3)c2)cc(NC(=O)Nc2c(Cl)cncc2Cl)c1=O` the IC50 was 0.03 nM.
